Test results from BindingDB's records for doi:10.7270/Q2H70D5W (University of Pittsburgh, 2007).
pIC50: −log10 of the molar value.

Biological target: Gag-Pol polyprotein (Human immunodeficiency virus type 1 group M subtype B (isolate HXB2), UniProt P04585)
Assay: concentration-response of HIV-1 RNase H blockers – biochemical, probe assessment, dose response (AID 652)
Details: pH 8; 23 °C

Q: With `COc1cc(C=CC(=O)CC(=O)C=Cc2ccc(O)c(OC)c2)ccc1O` [(1E,6E)-1,7-bis(4-hydroxy-3-methoxyphenyl)hepta-1,6-diene-3,5-dione] as the molecule, how does the pIC50 read?
A: 4.99
